Measured values taken from patent US20250042857A1, “SOS1 Inhibitor With Pyrido-Fused Six-Membered Ring Structure” (HAIHE BIOPHARMA CO., LTD., priority 2021, published 2025).

Protein sequences, listed by entry. Tags and fused reporters are not part of them. Lines headed by an entry give the natural chain unless they say otherwise; changes in a name come on top.
UniProt Q07889, whole entry, stated change not applied: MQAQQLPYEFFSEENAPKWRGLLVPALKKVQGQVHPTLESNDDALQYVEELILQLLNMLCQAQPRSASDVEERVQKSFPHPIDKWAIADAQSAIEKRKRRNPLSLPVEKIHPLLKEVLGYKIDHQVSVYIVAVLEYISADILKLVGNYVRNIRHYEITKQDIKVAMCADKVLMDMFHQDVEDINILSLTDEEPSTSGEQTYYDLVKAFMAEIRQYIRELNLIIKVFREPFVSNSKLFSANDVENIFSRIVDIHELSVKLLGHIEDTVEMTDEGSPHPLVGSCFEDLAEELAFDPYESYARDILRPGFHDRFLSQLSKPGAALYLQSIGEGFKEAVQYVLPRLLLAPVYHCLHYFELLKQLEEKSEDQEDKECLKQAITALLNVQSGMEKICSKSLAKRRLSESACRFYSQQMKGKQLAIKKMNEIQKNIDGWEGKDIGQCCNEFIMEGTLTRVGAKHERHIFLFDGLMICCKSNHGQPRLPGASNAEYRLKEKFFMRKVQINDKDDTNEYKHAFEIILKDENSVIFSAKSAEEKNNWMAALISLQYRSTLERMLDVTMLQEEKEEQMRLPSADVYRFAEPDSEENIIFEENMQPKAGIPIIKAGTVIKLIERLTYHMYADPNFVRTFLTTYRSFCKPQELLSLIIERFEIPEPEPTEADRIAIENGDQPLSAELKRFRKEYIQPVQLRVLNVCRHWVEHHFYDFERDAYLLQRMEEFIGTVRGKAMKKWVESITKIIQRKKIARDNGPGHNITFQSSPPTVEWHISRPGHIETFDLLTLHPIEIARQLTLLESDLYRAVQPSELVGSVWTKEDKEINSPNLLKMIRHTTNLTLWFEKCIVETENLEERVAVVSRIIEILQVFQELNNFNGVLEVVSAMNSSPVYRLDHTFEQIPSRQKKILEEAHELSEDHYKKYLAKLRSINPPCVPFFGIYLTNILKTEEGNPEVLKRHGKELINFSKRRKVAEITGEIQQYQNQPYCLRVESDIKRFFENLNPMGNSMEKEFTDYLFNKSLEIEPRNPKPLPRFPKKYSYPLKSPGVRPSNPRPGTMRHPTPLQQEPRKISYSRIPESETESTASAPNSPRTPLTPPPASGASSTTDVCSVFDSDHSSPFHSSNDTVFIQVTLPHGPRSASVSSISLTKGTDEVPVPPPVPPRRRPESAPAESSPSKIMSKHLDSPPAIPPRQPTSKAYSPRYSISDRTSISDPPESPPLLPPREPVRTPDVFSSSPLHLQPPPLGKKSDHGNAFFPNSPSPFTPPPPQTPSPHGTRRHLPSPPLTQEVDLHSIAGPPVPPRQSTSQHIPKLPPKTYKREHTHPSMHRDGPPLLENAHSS

These compounds were tested against KRAS-G12C/SOS1 (Homo sapiens (Human), UniProt Q07889) (assay: Detection of inhibitory effects of compounds on KRAS-G12C/SOS1 (KRASG12C/SOS binding kit, HTRF)). Conditions: read-out: IC50, inhibitory activity on interaction of KRAS-G12C/SOS1, Em665/620.
Source text: Experimental objective: The inhibitory effects of the tested compounds on KRAS-G12C/SOS1 were detected. IC50 was used to characterize the inhibitory ability of the compounds on the KRAS-G12C/SOS1. The lower IC50 value indicated the stronger inhibitory ability. BI-3406 was used as a positive control compound.
Experimental reagents: KRASG12C/SOS binding kit (Cisbio, cat. 63ADK000CB16PEG); DMSO (Sigma, cat. D8418-1L); and 384-well white plate (PerkinElmer, cat. 6007290)
• 1. Preparation of compounds: the test compounds were dissolved in 100% DMSO to obtain 10 mM stock solutions and the stock solutions were stored in a refrigerator in the dark. • 2. Kinase reaction process:
Preparation of compounds: the test compounds had the concentration of 5,000 nM and diluted in a 384-well plate into a 100% DMSO solution at the 200-fold final concentration, and the compounds were diluted 3-fold with 10 concentrations. 50 nL of the compounds at the 200-fold final concentration were transferred to the plate of interest, the 384-well plate, using a dispenser Echo 550. 50 nL of 100% DMSO was added to each negative control well and positive control well.
A Tag1-SOS1 solution at the 4-fold final concentration was prepared using a diluent buffer.
2.5 μL of the Tag1-SOS1 solution at the 4-fold final concentration was added to the 384-well plate.
A Tag2-KRAS-G12C solution at the 4-fold final concentration was prepared using the diluent buffer.
2.5 μL of the Tag2-KRAS-G12C solution at the 4-fold final concentration was respectively added into compound wells and the positive control wells; and 2.5 μL of the diluent buffer was added to the negative control wells.
The 384-well plate was centrifuged at 1,000 rpm for 30 seconds, shaken and mixed uniformly, and incubated at room temperature for 15 minutes.
An Anti-Tag1-TB3+ solution at the 1-fold final concentration and an Anti-Tag2-XL665 solution at the 1-fold final concentration were prepared using a detection buffer, the two solutions were mixed uniformly to obtain a Mix solution, and 5 μL of the Mix solution was added into each well.
The 384-well plate was centrifuged at 1,000 rpm for 30 seconds, shaken and mixed uniformly, and incubated at 4° C. for 120 minutes.
Em665/620 was read using an Envision microplate reader.
Inhibition %=(Max signal−Compound signal)/(Max signal−Min signal)×100 Calculation formula • wherein the Min signal was the mean value of the negative control wells, and the Max signal was the mean value of the positive control wells.
A dose-response curve was fitted using the log value of the concentration as an X axis and the percentage of the inhibitory rate as a Y axis by using the log(inhibitor) vs. response-variable slope of an analytical software GraphPadPrism5, thereby obtaining the IC50 value of each compound on an enzyme activity.

IC50 [nM] | SMILES
< 100 | CC(=O)NC1CCC(O)(c2cc3c(N[C@H](C)c4cccc(C(F)F)c4F)ccnc3cn2)CC1 (single isomer, unassigned)
< 100 | COC1(c2cc3c(N[C@H](C)c4cccc(C(F)F)c4F)ccnc3cn2)CCC(N(C)C)CC1 (single isomer, unassigned)
< 100 | COC1CCC(O)(c2cc3c(N[C@H](C)c4cccc(C(F)F)c4F)ccnc3cn2)CC1 (single isomer, unassigned)
< 100 | COC1CCC(OC)(c2cc3c(N[C@H](C)c4cccc(C(F)F)c4F)ccnc3cn2)CC1 (single isomer, unassigned)
< 100 | COc1nc(C2(O)CCC(O)CC2)cc2c(N[C@H](C)c3cccc(C(F)F)c3F)cc(C)nc12 (single isomer, unassigned)
< 100 | C[C@@H](Nc1ccnc2cnc(C3(O)CCC(C)(O)CC3)cc12)c1cccc(C(F)F)c1F (single isomer, unassigned)
